Drawing on PubChem BioAssay AID684 (PCMD, 2007), this text covers inhibition for 6 compounds.

Sequences of proteins named here, by UniProt entry; tags and fusion partners are left off. Residues count along the entry.
UniProt P00748, 20-372 limits assumed: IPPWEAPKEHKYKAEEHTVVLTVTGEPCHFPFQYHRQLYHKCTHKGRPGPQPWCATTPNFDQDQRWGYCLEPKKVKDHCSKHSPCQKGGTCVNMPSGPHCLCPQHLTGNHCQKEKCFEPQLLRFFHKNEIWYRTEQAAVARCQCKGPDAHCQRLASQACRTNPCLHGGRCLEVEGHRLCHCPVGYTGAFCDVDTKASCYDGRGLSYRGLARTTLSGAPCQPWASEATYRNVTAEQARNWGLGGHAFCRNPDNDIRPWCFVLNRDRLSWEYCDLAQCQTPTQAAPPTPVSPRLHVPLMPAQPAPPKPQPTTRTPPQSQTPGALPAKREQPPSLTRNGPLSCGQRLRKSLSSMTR
UniProt P00748, 373-615 limits assumed: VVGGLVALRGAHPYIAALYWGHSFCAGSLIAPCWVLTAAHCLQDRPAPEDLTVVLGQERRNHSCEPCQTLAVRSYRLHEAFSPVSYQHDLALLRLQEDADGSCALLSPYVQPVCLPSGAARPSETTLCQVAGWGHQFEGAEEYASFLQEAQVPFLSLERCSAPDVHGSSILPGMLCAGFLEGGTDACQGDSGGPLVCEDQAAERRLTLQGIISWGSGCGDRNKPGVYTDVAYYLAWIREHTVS

This is a selection; strong and weak results do not stand in their true shares. Activity calls are given as the source filed them. No stated cut-off is given here; in the data, active means inhibition above about 20% (passing the limit was not always enough); inactive means the rest.

The assay addresses Coagulation factor XII (Homo sapiens) (UniProt P00748). The experiment in a line: blockers of FXIIa protease activity – biochemical, pooled compound mixtures, fluorogenic substrate, primary screen (AID 684).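 Further: 0% = enzyme without compound and 100% = no enzyme blank.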 Conditions: purified FXIIa, at 5 µM, hits give high values.
`Fc1ccccc1NC1CCN(Cc2ccccc2)CC1`: the inhibition – broadly, the percentage by which the read-out fell short of the control – is inactive: 0.43%.

In the case of `CCC(CO)(C(=O)OC1CN2CCC1CC2)c1ccccc1` (stereo unspecified), the inhibition was inactive: 23.9%.

On to `CCOc1ncccc1C(=O)NCC1(N2CCOCC2)CCCCC1`, for which the inhibition was inactive: 8.2%.

For the compound `N/C(=N\O)c1c(N)no[n+]1[O-]`, the inhibition is inactive: 3.82%.

As to `N#CC1(Nc2ccccc2)CCN(CCc2ccccc2)CC1`, the inhibition was inactive: 5.58%.

Regarding `O=C(OC1CN2CCC1CC2)C1c2ccccc2Oc2ccccc21` (stereo unspecified), the inhibition is inactive: 3.21%.
